# Laboratory results: patent US6831199B1, “Pyrimidine compounds and derivatives thereof” (G. D. Searle & Co., priority 1995, dated 2004)
# Amino acid sequences for entries named in this document (tags omitted). Residues count along the entry.
# UniProt P08514, 32-887 limits assumed: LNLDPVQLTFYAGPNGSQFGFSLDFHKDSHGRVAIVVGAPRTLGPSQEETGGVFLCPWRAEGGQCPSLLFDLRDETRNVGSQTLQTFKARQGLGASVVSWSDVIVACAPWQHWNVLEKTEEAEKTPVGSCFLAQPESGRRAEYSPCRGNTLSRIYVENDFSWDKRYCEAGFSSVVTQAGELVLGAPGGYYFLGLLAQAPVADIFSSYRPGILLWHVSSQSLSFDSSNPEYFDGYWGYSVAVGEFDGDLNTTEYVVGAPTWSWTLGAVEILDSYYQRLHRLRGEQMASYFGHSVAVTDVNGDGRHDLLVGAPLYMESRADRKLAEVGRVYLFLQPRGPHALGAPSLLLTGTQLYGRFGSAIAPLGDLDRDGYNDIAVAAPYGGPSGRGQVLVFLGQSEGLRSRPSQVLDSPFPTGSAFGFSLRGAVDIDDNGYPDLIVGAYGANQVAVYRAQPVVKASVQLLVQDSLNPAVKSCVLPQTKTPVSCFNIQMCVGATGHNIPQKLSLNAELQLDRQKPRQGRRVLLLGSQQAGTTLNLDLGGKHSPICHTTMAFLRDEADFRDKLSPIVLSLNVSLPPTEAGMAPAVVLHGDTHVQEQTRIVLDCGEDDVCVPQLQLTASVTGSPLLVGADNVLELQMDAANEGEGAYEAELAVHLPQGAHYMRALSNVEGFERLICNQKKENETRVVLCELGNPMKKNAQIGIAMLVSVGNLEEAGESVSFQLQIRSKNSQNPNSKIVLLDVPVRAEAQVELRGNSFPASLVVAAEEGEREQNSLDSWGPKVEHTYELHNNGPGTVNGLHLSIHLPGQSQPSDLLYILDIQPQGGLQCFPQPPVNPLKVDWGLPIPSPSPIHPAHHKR
# UniProt P08514, 891-1039 limits assumed: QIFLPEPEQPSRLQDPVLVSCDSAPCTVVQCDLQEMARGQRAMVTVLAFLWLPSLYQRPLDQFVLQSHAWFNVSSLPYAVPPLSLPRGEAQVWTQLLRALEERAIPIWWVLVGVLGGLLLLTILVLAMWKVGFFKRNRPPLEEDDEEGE
# Experiments:
# [1] = biological target: Human vitronectin receptor (αvβ3) (Homo sapiens, UniProt P05106+P06756); experiment: Vitronectin adhesion assay (solid phase receptor assay, competition with biotinylated vitronectin); assay type: binding; conditions: read-out: AvB3 IC50; tested form: TFA
# [2] = biological target: Human fibrinogen receptor (αIIbβ3) (Homo sapiens, UniProt P05106+P08514); experiment: Purified IIb/IIIa receptor assay (solid phase receptor assay, competition with biotinylated vitronectin); assay type: binding; conditions: read-out: IIb/IIIa IC50; tested form: TFA
smiles,measurement,setting,value
CCOC(=O)CC(NC(=O)CNC(=O)c1cccc(NC(=N)N)c1)c1ccc(Cl)s1 (racemic),IC50,[1],3.49 nM
same,IC50,[2],280 nM
